The values that follow come from publication PMC4493534 (Theranostics, 2015).

In this assay the test system is TSPO. Kind of assay: In vitro autoradiography of postmortem human brain. It is filed as binding. Conditions: postmortem human brain sections, 0.5 nM radioligand.

Take `CC[C@@H](C)N([11CH3])C(=O)c1cc2ccccc2c(-c2ccccc2Cl)n1` [(R)[^11C]PK11195]: the “in vitro binding in LAB-1 compared with HAB-1” value is recorded as “a little higher in LAB-1 than in HAB-1”.
